Measurements reported in ChEMBL document CHEMBL4229484, “7β-Methyl substituent is a structural locus associated with activity cliff for nepenthone analogues” (2018).

Amino acid sequences for entries named in this document (tags omitted). A change or cut given only in a name is not applied to a line headed by its entry.
UniProt P33535, whole entry, looked up: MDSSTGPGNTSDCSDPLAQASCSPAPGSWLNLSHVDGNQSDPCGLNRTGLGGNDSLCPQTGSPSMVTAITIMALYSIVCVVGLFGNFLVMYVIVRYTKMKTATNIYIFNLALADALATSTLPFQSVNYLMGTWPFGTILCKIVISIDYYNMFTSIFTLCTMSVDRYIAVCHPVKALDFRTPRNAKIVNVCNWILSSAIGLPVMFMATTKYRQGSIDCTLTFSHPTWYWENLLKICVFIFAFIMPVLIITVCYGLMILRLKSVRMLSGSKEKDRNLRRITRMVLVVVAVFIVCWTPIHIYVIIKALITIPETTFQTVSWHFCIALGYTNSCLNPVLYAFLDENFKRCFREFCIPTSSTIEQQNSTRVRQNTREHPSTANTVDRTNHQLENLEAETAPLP
UniProt P41145: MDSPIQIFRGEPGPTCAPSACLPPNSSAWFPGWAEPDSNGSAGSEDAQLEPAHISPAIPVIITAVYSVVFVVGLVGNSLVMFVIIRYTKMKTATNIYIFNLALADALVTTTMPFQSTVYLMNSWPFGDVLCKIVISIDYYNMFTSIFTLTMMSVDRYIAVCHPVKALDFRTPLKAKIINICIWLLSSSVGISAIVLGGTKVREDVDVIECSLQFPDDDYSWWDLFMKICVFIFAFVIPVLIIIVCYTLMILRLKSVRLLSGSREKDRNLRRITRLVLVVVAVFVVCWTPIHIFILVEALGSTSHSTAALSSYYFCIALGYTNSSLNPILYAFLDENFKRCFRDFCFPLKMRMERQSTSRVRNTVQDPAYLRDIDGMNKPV
UniProt P33533, whole entry, looked up: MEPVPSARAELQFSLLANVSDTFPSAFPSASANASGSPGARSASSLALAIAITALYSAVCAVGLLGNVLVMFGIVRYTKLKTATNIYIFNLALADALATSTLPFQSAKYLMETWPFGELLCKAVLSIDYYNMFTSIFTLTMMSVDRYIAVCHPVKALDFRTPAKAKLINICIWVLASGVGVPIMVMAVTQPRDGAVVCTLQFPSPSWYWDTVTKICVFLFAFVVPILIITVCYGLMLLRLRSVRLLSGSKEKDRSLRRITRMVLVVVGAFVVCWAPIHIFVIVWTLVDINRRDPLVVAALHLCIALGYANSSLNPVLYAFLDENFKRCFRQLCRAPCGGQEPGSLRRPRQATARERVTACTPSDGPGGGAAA

Biological target: Mu-type opioid receptor (Rattus norvegicus) (UniProt P33535)
Assay: Agonist activity at rat MOR expressed in CHO cell membranes after 1 hr by [35S]GTPgammaS binding based liquid scintillation counting analysis relative to control

In the case of `CN(C(=O)Cc1ccc(Cl)c(Cl)c1)C1CCCCC1N1CCCC1` (centres undefined), the Emax is reported as 122%.

Organism: Homo sapiens
Assay: Selectivity ratio of Ki for human DOR expressed in CHO cell membranes to Ki for human KOR expressed in CHO cell membranes

Compared with `COc1ccc2c3c1O[C@H]1[C@@]4(OC)CC[C@@]5(C[C@]4(C)C(O)c4ccc(C(F)(F)F)cc4)[C@@H](C2)N(CC2CC2)CC[C@]315` (some centres undefined), `COc1ccc(C(O)[C@@]2(C)C[C@@]34CC[C@]2(OC)[C@@H]2Oc5c(OC)ccc6c5[C@@]23CCN(CC2CC2)[C@@H]4C6)cc1` (some centres undefined) is higher in Ratio Ki: 6.5 for the first, 30 for the second.

Compared with `COc1ccc2c3c1O[C@H]1[C@@]4(OC)CC[C@@]5(C[C@]4(C)CO)[C@@H](C2)N(CC2CC2)CC[C@]315`, `COc1ccc2c3c1O[C@H]1[C@@]4(OC)CC[C@@]5(C[C@]4(C)C=O)[C@@H](C2)N(CC2CC2)CC[C@]315` is lower in Ratio Ki: 43 for the first, 39 for the second.

First: COc1ccc2c3c1O[C@H]1[C@@]4(OC)C=C[C@@]5(C[C@@H]4C(=O)c4ccccc4)[C@@H](C2)N(CC2CC2)CC[C@]315
Second: COc1ccc2c3c1O[C@H]1[C@@]4(OC)CC[C@@]5(C[C@]4(C)C(=O)c4ccccc4)[C@@H](C2)N(CC2CC2)CC[C@]315
The Ratio Ki of the first is higher: 2030 for the first, 10 for the second.

Going from `COc1ccc2c3c1O[C@H]1[C@@]4(OC)CC[C@@]5(C[C@]4(C)OC(C)=O)[C@@H](C2)N(CC2CC2)CC[C@]315` to `COc1ccc2c3c1O[C@H]1[C@@]4(OC)CC[C@@]5(C[C@]4(C)OC(=O)C(C)C)[C@@H](C2)N(CC2CC2)CC[C@]315`, the Ratio Ki falls from 12 to 9.

`COc1cccc(C(O)[C@@]2(C)C[C@@]34CC[C@]2(OC)[C@@H]2Oc5c(OC)ccc6c5[C@@]23CCN(CC2CC2)[C@@H]4C6)c1` (some centres undefined) and `COc1ccc2c3c1O[C@H]1[C@@]4(OC)CC[C@@]5(C[C@]4(C)C(O)c4ccccc4)[C@@H](C2)N(CC2CC2)CC[C@]315` (some centres undefined) are the same in Ratio Ki: 13 for the first, 13 for the second.

Going from `COc1ccc(C(=O)[C@@]2(C)C[C@@]34CC[C@]2(OC)[C@@H]2Oc5c(OC)ccc6c5[C@@]23CCN(CC2CC2)[C@@H]4C6)cc1` to `COc1ccc2c3c1O[C@H]1[C@@]4(OC)CC[C@@]5(C[C@]4(C)C(=O)c4ccc(C(F)(F)F)cc4)[C@@H](C2)N(CC2CC2)CC[C@]315`, the Ratio Ki falls from 2.5 to 1.8.

Going from `COc1ccc2c3c1O[C@H]1[C@@]4(OC)CC[C@@]5(C[C@]4(C)OC(=O)c4ccc(C(F)(F)F)cc4)[C@@H](C2)N(CC2CC2)CC[C@]315` to `COc1ccc2c3c1O[C@H]1[C@@]4(OC)CC[C@@]5(C[C@]4(C)OC(=O)c4ccccc4)[C@@H](C2)N(CC2CC2)CC[C@]315`, the Ratio Ki falls from 1 to 0.04.

First: COc1ccc2c3c1O[C@H]1[C@@]4(OC)CC[C@@]5(C[C@]4(C)C(O)c4ccc(-c6ccccc6)cc4)[C@@H](C2)N(CC2CC2)CC[C@]315 (some centres undefined)
Second: COc1ccc2c3c1O[C@H]1[C@@]4(OC)CC[C@@]5(C[C@]4(C)C(=O)c4ccc(-c6ccccc6)cc4)[C@@H](C2)N(CC2CC2)CC[C@]315
The Ratio Ki of the first is lower: 0.2 for the first, 1.3 for the second.

Biological target: Kappa-type opioid receptor (Homo sapiens) (UniProt P41145)
Assay: Agonist activity at human KOR expressed in CHO cell membranes after 1 hr by [35S]GTPgammaS binding based liquid scintillation counting analysis relative to control

Compound `CN(C(=O)Cc1ccc(Cl)c(Cl)c1)C1CCCCC1N1CCCC1` (centres undefined) has an Emax of 262%.

Biological target: Delta-type opioid receptor (Rattus norvegicus) (UniProt P33533)
Assay: Agonist activity at rat DOR expressed in CHO cell membranes after 1 hr by [35S]GTPgammaS binding based liquid scintillation counting analysis relative to control

Compound `CN(C(=O)Cc1ccc(Cl)c(Cl)c1)C1CCCCC1N1CCCC1` (centres undefined) has an Emax of 113%.
